Experimental data taken from ChEMBL document CHEMBL1140429, “Conversion of the potent delta-opioid agonist H-Dmt-Tic-NH-CH(2)-bid into delta-opioid antagonists by N(1)-benzimidazole alkylation(1)” (J Med Chem, 2005).

Chains of the proteins cited; added tags and fusions are not shown.
UniProt P32300, whole entry: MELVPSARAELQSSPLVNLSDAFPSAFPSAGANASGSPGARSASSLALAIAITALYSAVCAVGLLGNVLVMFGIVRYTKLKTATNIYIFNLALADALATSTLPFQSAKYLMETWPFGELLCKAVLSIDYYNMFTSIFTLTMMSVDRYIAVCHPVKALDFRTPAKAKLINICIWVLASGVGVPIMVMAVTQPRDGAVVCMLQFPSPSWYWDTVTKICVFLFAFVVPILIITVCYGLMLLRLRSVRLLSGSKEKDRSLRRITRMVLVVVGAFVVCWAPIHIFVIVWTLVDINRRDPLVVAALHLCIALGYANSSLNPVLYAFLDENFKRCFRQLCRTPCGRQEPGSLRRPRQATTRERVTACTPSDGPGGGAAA

Target: Delta-type opioid receptor (Mus musculus, UniProt P32300)
Assay: Functional bioactivity against delta opioid receptor in mouse vas deferens
Assay type: tissue-based

CC(C)[C@H](NC(=O)[C@H](CC(=O)O)NC(=O)[C@H](Cc1ccccc1)NC(=O)[C@@H](C)NC(=O)[C@@H](N)Cc1ccc(O)cc1)C(=O)N[C@H](C(=O)NCC(N)=O)C(C)C [DELTORPHIN C]
pIC50: 9.77

pIC50: −log10 of the molar value.
